Assay results: PubChem BioAssay AID2780 (Johns Hopkins Ion Channel Center, 2010)
This is a selection; strong and weak results do not stand in their true shares. Calls of active or inactive are those of the source.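 The calls were made as follows: active = membrane potential signal shifting up or down by more than 3 SD of buffer-only wells, on both duplicate plates; inactive = the rest.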

Test: membrane potential modulation in parental HEK293, confirmation, counter-screen for TRPC6 inhibitor project, cell-based (AID 2780);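 as to membrane potential signal change: plate controls were buffer EC0 wells for no effect and acetylcholine ECmax wells for full effect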
Conditions: parental HEK293 membrane potential dye fluorescence; at 10 µM

Structure (SMILES)	membrane potential signal change	outcome
CCN(CC)CCCOC(=O)C(O)(c1ccccc1)C1CCCCC1 (stereo not given)	active: 11.6%	–
CN(C)CCOC(=O)C(O)(c1ccccc1)C1CCCC1 (stereo not given)	active: 1.4%	–
CN(C)CCOC(=O)C(O)(c1ccccc1)C1CCCCC1 (stereo not given)	active: 3.81%	–
O=C(OCCCN1CCCC1)C(O)(c1ccccc1)C1CCCCC1 (stereo not given)	active: 13.2%	–
CCOC(=O)c1ccc(NP(C)(=O)Oc2ccc(Cl)cc2)cc1 (stereo not given)	–	inactive
